Binding of CDR-mutated scFvs to a peptide of the spike HR2 region

Binding partner: SARS-CoV-2 spike HR2 peptide, sequence PDVDLGDISGINAS.

The variants keep the light chain, the linker and the frameworks of Ab-14 (scFv order VH, a (GGGGS)3 linker, VL).
VH: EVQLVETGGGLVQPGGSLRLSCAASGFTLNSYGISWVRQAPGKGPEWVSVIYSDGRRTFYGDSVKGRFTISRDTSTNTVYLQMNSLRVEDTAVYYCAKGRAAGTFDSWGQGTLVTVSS
VL: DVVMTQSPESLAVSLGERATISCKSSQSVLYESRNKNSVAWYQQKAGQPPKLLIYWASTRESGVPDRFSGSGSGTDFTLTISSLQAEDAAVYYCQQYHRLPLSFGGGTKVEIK

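The parent was found by panning a naive human phage display library on the peptide. This is the validation round: designs drawn from the data on random variants, tested in the same kind of assay. Several design methods are mixed in this list. The assay is AlphaSeq: two haploid yeast populations carry antibody and antigen on their surface. Binding brings cells together so that they mate, and sequencing counts the barcode pairs among the diploids. Each replicate has its own calibration line, from reference interactions of the BCL2 family. There are six technical replicates.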

Variants are written as CDR1, CDR2 and CDR3 of the heavy chain (limits as in the source). Parent: GFTLNSYGIS, VIYSDGRRTFYGDSVK, GRAAGTFDS.
The read-out is the apparent dissociation constant on a log10 scale (nM): the lower, the stronger.
The mean shown is taken over the replicates in which the pair was detected.
Where no diploid with the target was found in that replicate, the entry reads "n.d.": below detection, most likely a poor binder, though not proof of it.

{"CDR-H1": "GFNLNSYGIS", "CDR-H2": "VIYSDGRRTFYVDDVK", "CDR-H3": "GRLAGTFDT", "replicates, log10 nM": "n.d. 0.94 n.d. 1.45 1.06 1.20", "mean, log10 nM": "1.16"}
{"CDR-H1": "GFDLNEYGIS", "CDR-H2": "VIYADGRRTFYSDSVK", "CDR-H3": "GEIAGFFDM", "replicates, log10 nM": "n.d. n.d. n.d. n.d. 2.22 n.d.", "mean, log10 nM": "2.22"}
{"CDR-H1": "GFTLNSYGIS", "CDR-H2": "VIYSMGRRTFYSDSVK", "CDR-H3": "GRAGGTFDH", "replicates, log10 nM": "n.d. n.d. n.d. n.d. n.d. n.d.", "mean, log10 nM": "n.d."}
{"CDR-H1": "GFDLNSYGIS", "CDR-H2": "VIYSDGRRTFYTDSVK", "CDR-H3": "GRLAGGYDS", "replicates, log10 nM": "n.d. n.d. n.d. 1.67 n.d. n.d.", "mean, log10 nM": "1.67"}
{"CDR-H1": "GFTLTSYGIS", "CDR-H2": "VIYSDGRRTFYQDSVK", "CDR-H3": "GRAAGTFSV", "replicates, log10 nM": "n.d. n.d. n.d. n.d. n.d. n.d.", "mean, log10 nM": "n.d."}
{"CDR-H1": "GFTLNEYGIS", "CDR-H2": "VIYSDGRRTFYGDSVK", "CDR-H3": "GRAAGTFDL", "replicates, log10 nM": "1.45 3.96 0.63 1.89 1.00 1.40", "mean, log10 nM": "1.72"}
{"CDR-H1": "GFTLNDYGIS", "CDR-H2": "VIYADGRRTFYGDSVK", "CDR-H3": "GRAAGTFIS", "replicates, log10 nM": "n.d. n.d. n.d. n.d. n.d. n.d.", "mean, log10 nM": "n.d."}
{"CDR-H1": "GFDLNEYGIS", "CDR-H2": "VIYADGMRTAYIDSVK", "CDR-H3": "GETAGTFDI", "replicates, log10 nM": "-0.39 -0.28 -0.77 -0.84 -1.07 -0.26", "mean, log10 nM": "-0.60"}
{"CDR-H1": "GFDLDEYGIS", "CDR-H2": "VIYADGRRTFYADSVK", "CDR-H3": "GNLAGTFDS", "replicates, log10 nM": "-0.30 -0.06 -0.32 -0.05 -0.42 -0.29", "mean, log10 nM": "-0.24"}
{"CDR-H1": "GFTLNSYGIS", "CDR-H2": "VIYSDGRRAFYGDSVK", "CDR-H3": "GRSHGTFDS", "replicates, log10 nM": "n.d. n.d. n.d. n.d. n.d. n.d.", "mean, log10 nM": "n.d."}
{"CDR-H1": "MFDLNSYGIS", "CDR-H2": "VIYSDGRRTFYIDSVK", "CDR-H3": "GNAAGTFDS", "replicates, log10 nM": "n.d. 0.20 n.d. n.d. n.d. n.d.", "mean, log10 nM": "0.20"}
{"CDR-H1": "GFDLNEYGIS", "CDR-H2": "VIYADGKRTAYSDSVK", "CDR-H3": "GNQAGTFDI", "replicates, log10 nM": "-0.21 0.13 -0.27 0.41 -0.33 -0.15", "mean, log10 nM": "-0.07"}
{"CDR-H1": "GFSLNSYGIS", "CDR-H2": "VIYSDGRRTFYQDDVK", "CDR-H3": "GEAAGTFDS", "replicates, log10 nM": "-0.01 1.05 1.87 0.36 -0.14 -0.16", "mean, log10 nM": "0.49"}
{"CDR-H1": "KFDLNSYGIS", "CDR-H2": "VIYSDGRRTAYQDSVK", "CDR-H3": "GRAAGTFDS", "replicates, log10 nM": "0.96 1.19 1.45 1.19 1.33 1.27", "mean, log10 nM": "1.23"}
{"CDR-H1": "GFTLESYGIS", "CDR-H2": "VIYSDGRRTFYHDSVK", "CDR-H3": "GQGAGTFDS", "replicates, log10 nM": "n.d. n.d. n.d. n.d. n.d. n.d.", "mean, log10 nM": "n.d."}
{"CDR-H1": "GFELNSYGIS", "CDR-H2": "VIYSDGRRTFYGDSVK", "CDR-H3": "GKVAGTFDT", "replicates, log10 nM": "1.04 1.34 1.16 2.86 1.89 1.62", "mean, log10 nM": "1.65"}
{"CDR-H1": "GFDLEEFGIN", "CDR-H2": "VIYADGSRKVYTDAVK", "CDR-H3": "GEVSGDFDK", "replicates, log10 nM": "n.d. n.d. n.d. n.d. n.d. n.d.", "mean, log10 nM": "n.d."}
{"CDR-H1": "GFDIDEYGIS", "CDR-H2": "VIYADGLRVQYKNRVK", "CDR-H3": "GMYSGVIDM", "replicates, log10 nM": "n.d. n.d. n.d. n.d. n.d. n.d.", "mean, log10 nM": "n.d."}
{"CDR-H1": "GFNLDEYGIS", "CDR-H2": "VIYADGRRTFYADSVK", "CDR-H3": "GEEAGTFDT", "replicates, log10 nM": "0.91 0.06 -0.03 -0.05 0.23 0.62", "mean, log10 nM": "0.29"}

Picked from the list: the 3 lowest averages where every replicate gave a value.

| CDR-H1 | CDR-H2 | CDR-H3 | replicates, log10 nM | mean, log10 nM |
|---|---|---|---|---|
| GFDLNEYGIS | VIYADGMRTAYIDSVK | GETAGTFDI | -0.39 -0.28 -0.77 -0.84 -1.07 -0.26 | -0.60 |
| GFDLDEYGIS | VIYADGRRTFYADSVK | GNLAGTFDS | -0.30 -0.06 -0.32 -0.05 -0.42 -0.29 | -0.24 |
| GFDLNEYGIS | VIYADGKRTAYSDSVK | GNQAGTFDI | -0.21 0.13 -0.27 0.41 -0.33 -0.15 | -0.07 |

The parent sequence was in this pool as ten entries: three were never detected, three once, and four in most replicates, with averages from 0.34 to 2.37.
The authors averaged sequences with at least three values out of six and counted those with two or fewer as poor binders.
A sequence measured in both rounds can read differently, since the two assays cover different ranges.
Three control strains display no target. For all heavy chain designs, 1% of the pairings with them gave a signal, with a median of 2.08 and one signal in twenty below 0.84, so weak values seen in few replicates may be background.

Reference: Li et al. 2023, doi:10.1038/s41467-023-39022-2. File: FLAb, binding data.